Here are results for two compounds from PubChem BioAssay AID720543 (The Scripps Research Institute Molecular Screening Center, 2013).

By UniProt entry, the sequences of proteins in these tests, tags left out.
UniProt Q8VD66, whole entry: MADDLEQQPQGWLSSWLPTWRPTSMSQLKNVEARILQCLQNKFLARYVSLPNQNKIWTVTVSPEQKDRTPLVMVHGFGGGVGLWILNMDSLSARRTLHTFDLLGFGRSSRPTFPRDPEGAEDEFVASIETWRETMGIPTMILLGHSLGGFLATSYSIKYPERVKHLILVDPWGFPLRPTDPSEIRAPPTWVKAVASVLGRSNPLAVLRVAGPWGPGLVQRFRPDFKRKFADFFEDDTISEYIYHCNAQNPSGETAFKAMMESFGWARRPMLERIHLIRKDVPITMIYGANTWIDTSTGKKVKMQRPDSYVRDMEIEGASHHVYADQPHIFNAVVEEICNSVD

The list shows a part of the results, in another mix than the full data. The source made the active and inactive calls.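 How the source made its calls: active means inhibition exceeding the mean over every tested compound plus 3 SD (cut at about 30% in these data); inactive means the rest.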

In this test the target is (Lyso)-N-acylphosphatidylethanolamine lipase (Mus musculus) (UniProt Q8VD66). Description: ABHD4 inhibitors, primary screen, biochemical, fluorescence polarization, mouse (AID 720543).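 Further: 0% = plate median of compound wells and 100% = S159A mutant with DMSO.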 Particulars: purified mABHD4, FP-Rh probe fluorescence polarization; at 8.92 µM; active compounds read high. The method, boiled down: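 Assay system: Wild-type mouse ABHD4 protein | Medium: HEPES pH 7.0 buffer, 150 mM NaCl, 0.01% Pluronic F-127 | Incubation: Enzyme–compound pre-incubation 45 min, then probe 60 min, both 25 °C | Technique: Fluorescence polarization with parallel and perpendicular emission, 525/598 nm | Evaluation: % inhibition of FP-Rh probe binding versus controls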
Background: Fluorescence polarisation rises when a labelled molecule tumbles more slowly, as on binding a larger partner.
Consider `CCC(=O)N(c1ccccc1)C1(COC)CCN(CCc2cccs2)CC1`, for which the inhibition was inactive: -0.77%. The same measure for `CCC(=O)N(c1ccccc1)C1(COC)CCN(CCn2nnn(CC)c2=O)CC1`: inactive: 7.99%.

What is called inhibition is the drop in the measured response relative to a control, in per cent.
